Laboratory results reported in US11608353B2, “Amylase inhibitor compounds, methods of their use and compositions thereof” (THE UNIVERSITY OF BRITISH COLUMBIA, priority 2016, dated 2023).

By UniProt entry, the sequences of proteins in these tests, tags left out. Residues count along the entry.
UniProt P04746, 16-511 limits assumed: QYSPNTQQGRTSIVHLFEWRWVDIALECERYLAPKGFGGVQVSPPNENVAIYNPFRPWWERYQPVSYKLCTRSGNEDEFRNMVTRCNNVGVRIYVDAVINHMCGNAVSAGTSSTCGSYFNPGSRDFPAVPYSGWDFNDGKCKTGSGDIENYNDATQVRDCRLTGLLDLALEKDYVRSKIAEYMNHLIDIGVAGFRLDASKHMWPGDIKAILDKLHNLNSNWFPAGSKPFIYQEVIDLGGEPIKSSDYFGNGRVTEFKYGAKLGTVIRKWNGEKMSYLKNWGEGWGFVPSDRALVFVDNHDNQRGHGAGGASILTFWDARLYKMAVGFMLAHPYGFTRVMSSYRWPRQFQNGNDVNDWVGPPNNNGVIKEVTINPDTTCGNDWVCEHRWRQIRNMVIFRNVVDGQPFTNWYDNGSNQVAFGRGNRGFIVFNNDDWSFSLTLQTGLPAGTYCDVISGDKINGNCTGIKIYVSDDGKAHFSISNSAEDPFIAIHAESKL

Biological target: human pancreatic α-amylase (HPA) (Homo sapiens, UniProt P04746)
Assay: Inhibition of wild-type human pancreatic α-amylase (HPA), kinetic KI determination with CNP-G3
Assay type: biochemical
Conditions: read-out: Ki of HPA, CNP-G3 substrate, pH 7.0, 30° C., competitive inhibition model

For `C[C@@H]1O[C@@H](O[C@@H]2CO[C@@H](Oc3c(O)cc(-c4oc5cc(O)cc(O)c5c(=O)c4O[C@@H]4O[C@@H](C)[C@H](O)[C@@H](O)[C@H]4O[C@@H]4O[C@H](COC(=O)/C=C/c5ccc(O)c(O)c5)[C@@H](O)[C@H](O)[C@H]4O)cc3O)[C@H](O)[C@H]2O)[C@H](O)[C@H](O)[C@H]1O`, the pKi was 8.05.

pKi: −log10 of the molar value.
